# Permeability data for macrocyclic peptides

PAMPA is the parallel artificial membrane permeability assay, which has no cells and reads passive diffusion. P is given in units of 10^-6 cm/s (from log10 values with two decimals); larger means faster passage.

PAMPA (10^-6 cm/s)	SMILES
0.051	CC(=O)N1CCC[C@H]1C(=O)N(C)[C@@H](CC(C)C)C(=O)N[C@@H]1C(=O)N[C@@H](CC(C)C)C(=O)N[C@H](CC(C)C)C(=O)N(C)[C@H](CC(C)C)C(=O)N[C@@H](C)C(=O)N[C@@H](CC(C)C)C(=O)N2CCC[C@H]2C(=O)O[C@@H]1C
4.6	CC(=O)N1CCC[C@@H]1C(=O)N(C)[C@@H](CC(C)C)C(=O)N[C@@H]1C(=O)N[C@@H](CC(C)C)C(=O)N(C)[C@@H](CC(C)C)C(=O)N[C@H](CC(C)C)C(=O)N[C@H](C)C(=O)N[C@@H](CC(C)C)C(=O)N2CCC[C@@H]2C(=O)O[C@@H]1C
0.91	CC(=O)N1CCC[C@H]1C(=O)N(C)[C@@H](CC(C)C)C(=O)N[C@@H]1C(=O)N[C@H](CC(C)C)C(=O)N[C@@H](CC(C)C)C(=O)N[C@@H](CC(C)C)C(=O)N(C)[C@@H](C)C(=O)N[C@H](CC(C)C)C(=O)N2CCC[C@H]2C(=O)O[C@@H]1C
0.34	CC(=O)N[C@@H]1C(=O)N2CCC[C@H]2C(=O)N(C)[C@H](CC(C)C)C(=O)N[C@@H](CC(C)C)C(=O)N[C@H](CC(C)C)C(=O)N[C@@H](CC(C)C)C(=O)N[C@@H](C)C(=O)N[C@@H](CC(C)C)C(=O)N2CCC[C@@H]2C(=O)O[C@@H]1C
2.1	CC(=O)N1CCC[C@H]1C(=O)N(C)[C@@H](CC(C)C)C(=O)N[C@@H]1C(=O)N[C@H](CC(C)C)C(=O)N(C)[C@@H](CC(C)C)C(=O)N(C)[C@@H](CC(C)C)C(=O)N[C@@H](C)C(=O)N[C@@H](CC(C)C)C(=O)N2CCC[C@H]2C(=O)O[C@@H]1C
0.13	CC(=O)N1CCC[C@@H]1C(=O)N(C)[C@H](CC(C)C)C(=O)N[C@@H]1C(=O)N[C@H](CC(C)C)C(=O)N[C@H](CC(C)C)C(=O)N(C)[C@H](CC(C)C)C(=O)N[C@@H](C)C(=O)N[C@@H](CC(C)C)C(=O)N2CCC[C@H]2C(=O)O[C@@H]1C
8.1	CC(=O)N1CCC[C@H]1C(=O)N[C@@H]1C(=O)N(C)[C@H](CC(C)C)C(=O)N(C)[C@H](CC(C)C)C(=O)N(C)[C@@H](CC(C)C)C(=O)N[C@@H](CC(C)C)C(=O)N(C)[C@@H](C)C(=O)N[C@@H](CC(C)C)C(=O)N2CCC[C@@H]2C(=O)O[C@@H]1C
0.1	CC(=O)N1CCC[C@@H]1C(=O)N(C)[C@@H](CC(C)C)C(=O)N[C@@H]1C(=O)N[C@@H](CC(C)C)C(=O)N[C@H](CC(C)C)C(=O)N[C@H](CC(C)C)C(=O)N[C@H](C)C(=O)N[C@@H](CC(C)C)C(=O)N2CCC[C@H]2C(=O)O[C@@H]1C
2.9	CC(=O)N1CCC[C@H]1C(=O)N[C@@H]1C(=O)N[C@H](CC(C)C)C(=O)N[C@H](CC(C)C)C(=O)N[C@H](CC(C)C)C(=O)N[C@H](CC(C)C)C(=O)N[C@@H](C)C(=O)N[C@@H](CC(C)C)C(=O)N2CCC[C@@H]2C(=O)O[C@@H]1C
1.3	CC(=O)N1CCC[C@H]1C(=O)N(C)[C@@H](CC(C)C)C(=O)N[C@@H]1C(=O)N[C@H](CC(C)C)C(=O)N[C@H](CC(C)C)C(=O)N(C)[C@H](CC(C)C)C(=O)N(C)[C@@H](C)C(=O)N[C@@H](CC(C)C)C(=O)N2CCC[C@H]2C(=O)O[C@@H]1C
0.22	CC(=O)N1CCC[C@H]1C(=O)N(C)[C@@H](CC(C)C)C(=O)N[C@@H]1C(=O)N[C@@H](CC(C)C)C(=O)N[C@@H](CC(C)C)C(=O)N[C@H](CC(C)C)C(=O)N(C)[C@H](C)C(=O)N[C@H](CC(C)C)C(=O)N2CCC[C@H]2C(=O)O[C@@H]1C
11	CC(=O)N1CCC[C@H]1C(=O)N[C@@H]1C(=O)N[C@H](CC(C)C)C(=O)N(C)[C@H](CC(C)C)C(=O)N(C)[C@@H](CC(C)C)C(=O)N(C)[C@H](CC(C)C)C(=O)N(C)[C@H](C)C(=O)N[C@@H](CC(C)C)C(=O)N2CCC[C@@H]2C(=O)O[C@@H]1C
0.91	CC(=O)N1CCC[C@H]1C(=O)N(C)[C@@H](CC(C)C)C(=O)N[C@@H]1C(=O)N(C)[C@H](CC(C)C)C(=O)N[C@H](CC(C)C)C(=O)N(C)[C@H](CC(C)C)C(=O)N(C)[C@H](C)C(=O)N[C@H](CC(C)C)C(=O)N2CCC[C@@H]2C(=O)O[C@@H]1C

Excerpt, the opening 2 entries:

SMILES	PAMPA (10^-6 cm/s)
CC(=O)N1CCC[C@H]1C(=O)N(C)[C@@H](CC(C)C)C(=O)N[C@@H]1C(=O)N[C@@H](CC(C)C)C(=O)N[C@H](CC(C)C)C(=O)N(C)[C@H](CC(C)C)C(=O)N[C@@H](C)C(=O)N[C@@H](CC(C)C)C(=O)N2CCC[C@H]2C(=O)O[C@@H]1C	0.051
CC(=O)N1CCC[C@@H]1C(=O)N(C)[C@@H](CC(C)C)C(=O)N[C@@H]1C(=O)N[C@@H](CC(C)C)C(=O)N(C)[C@@H](CC(C)C)C(=O)N[C@H](CC(C)C)C(=O)N[C@H](C)C(=O)N[C@@H](CC(C)C)C(=O)N2CCC[C@@H]2C(=O)O[C@@H]1C	4.6

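Conditions beyond the assay type are not listed; see the original paper. Other peptides of the study may be missing here. Peptides that the database sets to -10, its floor, are left out.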

Data: CycPeptMPDB; original report Kelly et al. 2021, doi:10.1021/jacs.0c06115.